Experimental data taken from BindingDB's records for patent US9694016 (Novartis AG, 2017).

Protein sequences, listed by entry. Tags and fused reporters are not part of them.
UniProt P04049, whole entry Y340E/Y341E: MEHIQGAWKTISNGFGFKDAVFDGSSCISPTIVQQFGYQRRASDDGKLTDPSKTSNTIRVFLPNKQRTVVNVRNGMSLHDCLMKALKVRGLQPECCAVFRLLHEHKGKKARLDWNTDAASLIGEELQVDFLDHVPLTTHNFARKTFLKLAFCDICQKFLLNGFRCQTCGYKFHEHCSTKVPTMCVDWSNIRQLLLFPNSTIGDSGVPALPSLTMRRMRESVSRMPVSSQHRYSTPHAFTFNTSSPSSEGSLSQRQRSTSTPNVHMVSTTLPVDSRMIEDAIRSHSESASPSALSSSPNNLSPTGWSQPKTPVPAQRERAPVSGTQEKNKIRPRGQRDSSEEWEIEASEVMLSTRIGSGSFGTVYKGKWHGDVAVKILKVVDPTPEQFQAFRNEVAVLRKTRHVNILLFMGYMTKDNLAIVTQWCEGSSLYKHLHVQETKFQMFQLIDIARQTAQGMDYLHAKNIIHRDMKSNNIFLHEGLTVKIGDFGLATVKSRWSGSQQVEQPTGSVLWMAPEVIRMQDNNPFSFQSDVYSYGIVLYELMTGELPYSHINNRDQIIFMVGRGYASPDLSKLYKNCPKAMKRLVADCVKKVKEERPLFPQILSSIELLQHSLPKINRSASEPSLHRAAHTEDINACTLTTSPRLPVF

Biological target: RAF proto-oncogene serine/threonine-protein kinase [Y340E,Y341E] (Human, UniProt P04049, Y340E/Y341E)
Experiment: Raf Activity Assay
Settings: pH 7.5; 25 °C

- IC50: 0.3 nM
SMILES: Cc1ccc(NC(=O)c2cccc(C(F)(F)F)c2)cc1-c1cc(N)nc(N2CCOCC2)c1 [US9694016, 93]
